The values below are quoted from earlier work in US20200315241A1 (Nude Nicotine, Inc., priority 2017, published 2020).

For orientation: pKa means the pH at which an ionisable group is half protonated.

The conditions of this data set: Table 7, nicotine salt (organic acid), cited from earlier work.

Like-named read-outs stand apart in the source and are kept apart here.

`CN1CCCC1c1cccnc1.O=C(O)CCC(=O)O` (centres unmarked) [Nicotine succinate]: the pKa was 4.21. For the same molecule, the pKa (second value) is 5.63.
With `CC(O)C(=O)O.CN1CCCC1c1cccnc1` (centres unmarked) [Nicotine lactate], the pKa was 3.58.
Consider `CN1CCCC1c1cccnc1.O=CO` (centres unmarked) [Nicotine formate], for which the pKa is listed as 3.75.
`CN1CCCC1c1cccnc1.O=C(O)CC(O)C(=O)O` (centres unmarked) [Nicotine malate]: the pKa is reported as 3.51. In addition, the pKa (second value) is recorded as 5.03.
Turning to `CN1CCCC1c1cccnc1.O=C(O)C(=O)O` (centres unmarked) [Nicotine oxalate], the pKa is 1.46. Further, the pKa (second value) was 4.40.
Take `CN1CCCC1c1cccnc1.O=C(O)CO` (centres unmarked) [Nicotine glycolate]: the pKa is reported as 3.83.
Regarding `CN1CCCC1c1cccnc1.O=C(O)CC(O)(CC(=O)O)C(=O)O` [Nicotine citrate], the pKa was 2.79.
Consider `CN1CCCC1c1cccnc1.O=C(O)c1ccccc1` (centres unmarked) [Nicotine benzoate], for which the pKa is given as 4.19.
`CN1CCCC1c1cccnc1.O=C(O)C(O)C(O)C(=O)O` (centres unmarked) [Nicotine tartrate]: the pKa is given as 3.22. In addition, the pKa (second value) is 4.85.
Take `CN1CCCC1c1cccnc1.O=C(O)/C=C/C(=O)O` (centres unmarked) [Nicotine fumarate]: the pKa is recorded as 3.03. In addition, the pKa (second value) was 4.54.
With `CCC(=O)O.CN1CCCC1c1cccnc1` (centres unmarked) [Nicotine propionate], the pKa is 4.88.
As to `CN1CCCC1c1cccnc1.O=C(O)CC(=O)O` (centres unmarked) [Nicotine malonate], the pKa is on record as 2.85.
